pKi: −log10 of the molar value.
Molecular target: T1, Neutrophil elastase (Homo sapiens, UniProt P08246)
T1 sequence (P08246 whole entry): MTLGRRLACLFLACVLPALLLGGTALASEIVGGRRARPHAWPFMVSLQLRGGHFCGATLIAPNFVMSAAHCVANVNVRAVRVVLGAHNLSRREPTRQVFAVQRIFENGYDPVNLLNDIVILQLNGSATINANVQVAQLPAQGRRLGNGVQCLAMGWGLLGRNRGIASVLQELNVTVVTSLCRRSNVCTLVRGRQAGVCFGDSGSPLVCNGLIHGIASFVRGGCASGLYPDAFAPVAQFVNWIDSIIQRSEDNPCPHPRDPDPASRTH
Test: Inhibition of human leukocyte elastase

Question: `CC(C)(C)C(=O)Oc1ccc(S(=O)(=O)Nc2ccccc2C(=O)NCC(=O)O)cc1` [SIVELESTAT] was tested. Which pKi did it give?
Answer: Its pKi is 7.43.
